Laboratory results as given in US20240139185A1, “COMPOUNDS THAT PARTICIPATE IN COOPERATIVE BINDING AND USES THEREOF” (Revolution Medicines, Inc., priority 2018, published 2024).

Experiments:
[1] = biological target: BRAF-GTP-KRAS-G12C complex (Homo sapiens, UniProt P01116+P62937, G12C); experiment: KRAS-BRAF complex disruption through competition with CYPA-compound by TR-FRET; details: read-out: BRAF-GTP-KRAS-G12C Disruption; biochemical BRAF-KRAS G12C-GTP disruption assay EC50, with CYPA
In short: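 His6-KRAS G12C-GTP (1-169, 50 nM) with tagless CypA (1-165, 500 nM) was incubated with compound for 3 h at room temperature in pH 7.3 Hepes/NaCl/MgCl2 buffer containing GST-BRAF RBD. Anti-His Eu (10 nM) and anti-GST APC (50 nM) were then added for 1.5 h, and the 665/615 nm TR-FRET ratio was read. EC50 from 4-parameter fit; for specificity, wild-type KRAS replaced G12C, and CypA was omitted to test presenter dependence.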

pERK in H358 cells = experiment: pERK inhibition in H358 cells; details: read-out: Cellular pERK inhibition, 4 hours treatment
In short: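 Human lung cancer H358 cells in RPMI/10% FBS were exposed to compound or DMSO for 4 h. Fixed and permeabilized cells were stained overnight at 4 C with anti-phospho-ERK1/2 (Thr202/Tyr204). Near-infrared imaging read the pERK signal at 800 nm, with DRAQ5 at 700 nm.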

cyclophilin A (CYPA) = cyclophilin A (CYPA) (Homo sapiens, UniProt P62937); experiment: CYPA-compound binary complex formation by SPR; details: read-out: CYPA Binding Affinity
In short: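 CypA-Avi captured on a Biotin CAPture chip (4 μg/ml), reference flow cell subtracted. Compounds injected as 10-point 2-fold dilutions from 50 μM in HBS-P+ pH7.4 with 2% DMSO; 60 s association and 60 s dissociation, solvent-corrected. Affinity obtained by steady-state fitting.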

EC50 [1] | IC50 (pERK in H358 cells) | Kd (cyclophilin A (CYPA)) | SMILES
< 500 nM | > 10 µM | > 15 µM | Cc1nc2ccc3c(F)c2n1CC(C)(C)COC(=O)[C@@H]1CCCN(N1)C(=O)[C@@H](NC(=O)[C@H](C(C)C)N(C)C(=O)C1CN(C(=O)CCl)C1)Cc1cc(O)cc-3c1
< 500 nM | > 10 µM | 5 to 15 µM | C=CS(=O)(=O)N1CC(C(=O)N(C)[C@H](C(=O)N[C@H]2Cc3cc(O)cc(c3)-c3ccc4nc(C)n(c4c3)CC(C)(C)COC(=O)[C@@H]3CCCN(N3)C2=O)C(C)C)C1
500 to 5000 nM | 1 to 10 µM | 5 to 15 µM | C=CC(=O)N1CC[C@H](C(=O)N(C)[C@H](C(=O)N[C@H]2Cc3cc(O)cc(c3)-c3ccc4c(C(C)(C#N)C5CCOC5)cn(c4c3)CC(C)(C)COC(=O)[C@@H]3CCCN(N3)C2=O)C(C)C)C1 (stereo partly drawn)
500 to 5000 nM | > 10 µM | < 5 µM | CN(C(=O)C1CN(C(=O)CCl)C1)[C@@H](CC1CCCC1)C(=O)N[C@H]1Cc2cc(O)cc(c2)-c2ccc3c(C(C)(C)C#N)cn(c3c2)CC(C)(C)COC(=O)[C@@H]2CCCN(N2)C1=O
< 500 nM | 1 to 10 µM | 5 to 15 µM | CC(C)[C@@H](C(=O)N[C@H]1Cc2cc(O)cc(c2)-c2ccc3c(C(C)(C)C#N)cn(c3c2)CC(CC2CC2)COC(=O)[C@@H]2CCCN(N2)C1=O)N(C)C(=O)C1CN(C(=O)CCl)C1 (stereo partly drawn)
